The source of these data is ChEMBL document CHEMBL1649436, “Antiviral activity of MK-4965, a novel nonnucleoside reverse transcriptase inhibitor” (Antimicrob Agents Chemother, 2009).

This test deals with Human immunodeficiency virus type 1 reverse transcriptase (Human immunodeficiency virus 1, UniProt Q72547). As to the kind of experiment: Inhibition of HIV1 isolate R8 reverse transcriptase after 90 mins.

Broadly, the IC50 is the concentration needed to halve the response being measured. Low readings indicate inhibition by little substance, high ones a need for much substance. As for `Cc1cc(C#N)cc(C)c1Oc1nc(Nc2ccc(C#N)cc2)nc(N)c1Br` [ETRAVIRINE], inhibition was half-maximal at 0.6 nM (IC50).
